From BindingDB's records for doi:10.1021/jm00101a032 (Pfizer, 1992)

Experiment: Effect on forskolin stimulated adenylate cyclase activity at 5-hydroxytryptamine 1A receptor of guinea pig hippocampus.

COc1ccc2[nH]cc(CCN(C)C)c2c1 [3-(2-DIMETHYLAMINOETHYL)-5-METHOXYINDOLE]
pIC50: 7.82

pIC50: −log10 of the molar value.
